This is a selection; strong and weak results do not stand in their true shares. The source made the active and inactive calls. No stated cut-off is given here; in the data, active means inhibition above about 32%; inactive means the rest.

A short description of the test: TEAD-YAP interaction inhibition, primary screen, TEAD-YAP interaction inhibitor project, luminescence, HEK-TIYL cells (AID 1259422).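 Further: 0% = median of test compound wells and 100% = reference inhibitor wells.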 Particulars: TEAD-Gal4/YAP UAS-luciferase luminescence, at 9.12 µM, hits give high values.
By inhibition is commonly meant the change of the read-out against control, counted positive when it falls. With `CN(CCCl)CCCl`, the inhibition is inactive: -3.09%.

The values are drawn from PubChem BioAssay AID1259422 (The Scripps Research Institute Molecular Screening Center, 2018).
